Measured values taken from patent publication US20130059793A1, “EGF RECEPTOR MIMICKING PEPTIDES” (BOARD OF REGENTS, THE UNIVERSITY OF TEXAS SYSTEM, priority 2010, published 2013).

Experiments:
HN5 tumor cells = assay: Cell viability/proliferation, MTT assay, HN5; assay type: cell-based, human; parameters: dose or concentration left out as unconfirmed; conditions: 120 h, increasing concentrations, FIG. 4C
Protocol: (§1) A representative experiment is depicted. […] Bars represent mean±SEM. […] (FIG. 4C) Effect of the synthetic peptides on HN5 tumor cells. […] Viability in the absence of peptide was set to 100%. […] Bars represent mean±SEM. […] Receptors were immunoprecipitated with antibodies against phosphorylated (p) pEGFR and were immunoblotted with anti-phosphotyrosine IgG.
(§2) Tumor cell lines HN5, UMSCC 10A, GEO and EF43.fgf-4 were culture in standard conditions. Viability was assessed by MTT assays (Sigma) as described (Cardó-Vila et al., 2003). […] Samples were read at 570 nm.
(§3) Tumor cell lines HN5, UMSCC 10A, GEO and EF43.fgf-4 were maintained in high-glucose DMEM, supplemented with 10% heat-inactivated fetal bovine serum, 20 mM HEPES (pH 7.4), 100 IU/ml penicillin, 100 μg/ml streptomycin, and 4 mM glutamine at 5% CO2 at 37° C. EF43.fgf-4 were grown in G418 as described (Hajitou et al., 2006).

[1] = target: binding of EGF to the EGFR (Homo sapiens, UniProt P01133); assay: Displacement of EGF from immobilized EGFR (FIG. 6A); conditions: D(CARVC) from 30 to 1,000 mM, cetuximab 12 nM positive control
Text: The EGFR was coated onto 96-well plates at decreasing concentrations. […] D(CAAVC (SEQ ID NO:8)) was used as a negative peptidomimetic control at the same concentrations (circles). […] Bars represent mean±SEM.
Decreasing molar concentrations of EGFR were immobilized in vitro, after which the native ligand (EGF or TGFα) was used to establish the baseline for the binding of EGF to the EGFR, or of TGFα to the EGFR.

GEO cells = assay: Cell viability/proliferation, MTT assay, GEO; assay type: cell-based, human; conditions: FIG. 9B
Protocol: A representative experiment is shown. Bars represent mean±SEM.
as §2, §3

EGFR = assay: EGF-induced EGFR autophosphorylation (immunoprecipitation, anti-phosphotyrosine blot); assay type: cell-based, human; conditions: HN5 tumor cells, EGF 15 min, FIG. 4E
Protocol: as §1
Cells were lysed and lysates were used for immunoprecipitation assays as described (Cardó-Vila et al., 2003). Cells were lysed in 20 mM Tris-HCl (pH 7.8), 150 mM NaCl, 1 mM EDTA, 1 mM EGTA, 10 mM DTT, 10 mM PMSF 1% Titron X-100, phosphatase inhibitor I and II (Sigma) and protease inhibitor, sonicated, and clarified by centrifugation. For immunoprecipitation (IP) studies, lysates were incubated with primary antibodies, and the immune complexes were precipitated with protein A-Sepharose beads. Cell lysates or immunoprecipitated proteins were separated by SDS-PAGE, electro-transferred onto nitrocellulose, and probed with primary antibodies and horseradish peroxidase-labeled secondary antibodies.
An anti-phosphotyrosine antibody (PY20) was used for EGFR activation assays. Tumor cells were starved and/or incubated with ligands. […]

Substance: cetuximab [reference compound]
- cell proliferation / viability (HN5 tumor cells): inhibited cell proliferation
- displacement of EGF from the EGFR [1]: displaced EGF at low nanomolar concentrations
- cell proliferation / viability (GEO cells): inhibited cell proliferation
- EGF-induced tyrosine phosphorylation of the EGFR (EGFR): effectively inhibited
